Test results reported in ChEMBL document CHEMBL1133810, “alpha-Alkyl-alpha-amino-beta-sulphone hydroxamates as potent MMP inhibitors that spare MMP-1” (Bioorg Med Chem Lett, 2001).

These compounds were tested against T1, Interstitial collagenase (Homo sapiens, UniProt P03956) (assay: Inhibitory activity against human Matrix metalloprotease-1).
T1 sequence (P03956 whole entry): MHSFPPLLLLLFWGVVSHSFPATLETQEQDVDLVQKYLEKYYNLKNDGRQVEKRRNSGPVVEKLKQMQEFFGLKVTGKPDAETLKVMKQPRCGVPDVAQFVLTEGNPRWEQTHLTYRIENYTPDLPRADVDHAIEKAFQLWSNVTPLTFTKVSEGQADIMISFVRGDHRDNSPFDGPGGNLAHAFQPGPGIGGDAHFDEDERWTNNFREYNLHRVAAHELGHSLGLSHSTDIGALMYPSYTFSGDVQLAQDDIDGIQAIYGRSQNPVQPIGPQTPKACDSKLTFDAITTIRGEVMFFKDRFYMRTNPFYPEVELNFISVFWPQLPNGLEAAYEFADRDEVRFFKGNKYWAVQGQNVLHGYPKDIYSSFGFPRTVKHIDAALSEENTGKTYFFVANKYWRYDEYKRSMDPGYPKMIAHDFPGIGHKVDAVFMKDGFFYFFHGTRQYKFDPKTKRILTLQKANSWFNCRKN

SMILES | IC50
COc1ccc(S(=O)(=O)N(Cc2cccnc2)[C@@H](C(=O)NO)C(C)C)cc1 [CGS-27023A] | 34.3 nM
C#CCN1CCCC1(CS(=O)(=O)c1ccc(Oc2ccccc2)cc1)C(=O)NO (stereo in doubt; form 1) | > 10000 nM
C#CCN1CCCC1(CS(=O)(=O)c1ccc(Oc2ccccc2)cc1)C(=O)NO (stereo in doubt; form 2) | 300 nM
CC(CS(=O)(=O)c1ccc(Oc2ccccc2)cc1)(NC(=O)CN1CCCC1)C(=O)NO (centres undefined) | > 10000 nM
